From patent US7074822B2, “Alkyl carbamate-substituted β-lactones, process for their preparation, and pharmaceutical compositions containing them” (Solvay Pharmaceuticals GmbH, priority 2004, dated 2006)

By UniProt entry, the sequences of proteins in these tests, tags left out.
UniProt P00591, whole entry: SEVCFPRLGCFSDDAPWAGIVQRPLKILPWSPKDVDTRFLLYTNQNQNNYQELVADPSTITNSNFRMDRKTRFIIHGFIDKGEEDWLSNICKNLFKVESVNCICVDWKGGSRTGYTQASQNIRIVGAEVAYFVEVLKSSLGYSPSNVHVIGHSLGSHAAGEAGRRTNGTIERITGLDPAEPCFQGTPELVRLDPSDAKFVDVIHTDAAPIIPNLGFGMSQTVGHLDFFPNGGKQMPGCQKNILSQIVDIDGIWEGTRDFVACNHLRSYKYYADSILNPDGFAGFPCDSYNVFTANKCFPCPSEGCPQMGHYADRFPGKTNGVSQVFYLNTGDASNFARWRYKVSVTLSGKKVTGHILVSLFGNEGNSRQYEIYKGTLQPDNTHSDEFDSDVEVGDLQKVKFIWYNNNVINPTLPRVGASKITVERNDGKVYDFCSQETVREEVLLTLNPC

Biological target: porcine pancreatic lipase (Sus scrofa, UniProt P00591)
Experiment: Olive oil test: inhibition of porcine pancreatic lipase with respect to triglycerides in olive oil (pH-stat titration)
Details: read-out: IC50, porcine pancreatic lipase-inhibiting action in vitro with respect to triglycerides in olive oil; substrate olive oil emulsion, pH 9.0, 37.0° C., 10 minutes pre-incubation in ice bath
Protocol: In a heterogeneous reaction, the inhibition of the lipolytic action of porcine pancreatic lipase was determined under the influence of the test substances of Formula I with respect to the triglycerides contained in the test substrate olive oil. The fatty acids released by the lipase were titrated with sodium hydroxide solution to pH 9.0.
The reagents given below were prepared:
A. Gum Arabic Solution 10% (m/V)
200 g gum arabic (Acaciae gummi in accordance with the specifications of the German Pharmacopeia (=DAB)/European Pharmacopeia (=Ph.Eur.) was dissolved in 2000 ml ultrapure water with stirring and if necessary centrifugation. The solution was stored at −20° C. in plastic vessels of capacity of 250 ml. The amount required per day was thawed as required.
B. Sodium Taurocholate Solution 8% (m/V)
8 g sodium taurocholate (FIP) was dissolved in 100 ml ultrapure water.
60.6 mg Tris(hydroxymethyl)aminomethane p.a. (Merck, No. 8382) and 234 mg sodium chloride (p.a.) were dissolved in 100 ml ultrapure water.
D. 0.1 N Sodium Hydroxide Solution […]
1 ml lipase reference suspension was incubated with the respective amount of inhibitor solution for 10 minutes in an ice bath. […] The sodium hydroxide consumption between the 1st and the 5th minute was evaluated. […]

- IC50: 75 nM
SMILES: CCCCCCC1C(=O)OC1CCCCOC(=O)Nc1ccc(Oc2ccccc2)cc1 (stereo not shown)
